Assay results as given in ChEMBL document CHEMBL1140464, “Synthesis and structure-activity relationship of 4-(2-aryl-cyclopropylamino)-quinoline-3-carbonitriles as EGFR tyrosine kinase inhibitors” (Bioorg Med Chem Lett, 2007).

Protein sequences, listed by entry. Tags and fused reporters are not part of them.
UniProt P00519, whole entry: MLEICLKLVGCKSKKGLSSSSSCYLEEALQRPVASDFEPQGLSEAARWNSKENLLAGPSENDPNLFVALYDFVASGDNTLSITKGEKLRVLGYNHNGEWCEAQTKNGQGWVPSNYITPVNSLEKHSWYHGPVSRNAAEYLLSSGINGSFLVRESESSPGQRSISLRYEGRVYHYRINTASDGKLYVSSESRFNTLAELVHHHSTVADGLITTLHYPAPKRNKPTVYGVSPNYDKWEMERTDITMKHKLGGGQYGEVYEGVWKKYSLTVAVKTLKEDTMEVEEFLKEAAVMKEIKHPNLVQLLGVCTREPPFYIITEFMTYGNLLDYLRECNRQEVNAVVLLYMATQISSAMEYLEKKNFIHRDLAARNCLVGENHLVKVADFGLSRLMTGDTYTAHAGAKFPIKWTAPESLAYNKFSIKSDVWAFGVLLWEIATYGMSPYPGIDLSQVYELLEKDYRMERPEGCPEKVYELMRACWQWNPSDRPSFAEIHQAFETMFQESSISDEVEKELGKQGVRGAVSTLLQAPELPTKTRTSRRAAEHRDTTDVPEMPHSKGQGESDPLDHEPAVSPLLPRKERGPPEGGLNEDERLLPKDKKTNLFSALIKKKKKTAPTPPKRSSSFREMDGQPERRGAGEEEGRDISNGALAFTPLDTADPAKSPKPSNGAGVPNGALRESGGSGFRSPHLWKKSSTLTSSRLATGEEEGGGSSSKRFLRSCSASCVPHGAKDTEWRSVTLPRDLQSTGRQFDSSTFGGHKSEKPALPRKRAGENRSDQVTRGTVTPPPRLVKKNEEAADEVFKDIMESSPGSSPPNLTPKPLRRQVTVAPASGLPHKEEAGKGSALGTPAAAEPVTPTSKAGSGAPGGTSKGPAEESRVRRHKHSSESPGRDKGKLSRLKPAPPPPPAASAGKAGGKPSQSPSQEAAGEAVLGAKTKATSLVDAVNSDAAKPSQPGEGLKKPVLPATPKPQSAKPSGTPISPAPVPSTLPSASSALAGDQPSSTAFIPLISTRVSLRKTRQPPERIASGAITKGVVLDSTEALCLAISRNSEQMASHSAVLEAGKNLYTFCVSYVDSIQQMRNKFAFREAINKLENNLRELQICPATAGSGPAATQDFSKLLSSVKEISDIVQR

Molecular target: Tyrosine-protein kinase ABL1 (Homo sapiens, UniProt P00519)
Experiment: Inhibition of ABL

N#Cc1cnc2cc(-c3ccc(CN4CCOCC4)cc3)ccc2c1N[C@@H]1C[C@H]1c1ccccc1
Ki: 300 nM
